Source: ChEMBL document CHEMBL1129522, “Inhibitors of acyl-CoA:cholesterol O-acyltransferase. 17. Structure-activity relationships of several series of compounds derived from N-chlorosulfonyl isocyanate” (J Med Chem, 1996)

Molecular target: T1, Sterol O-acyltransferase 1 (Rattus norvegicus, UniProt O70536)
T1 sequence (O70536 whole entry): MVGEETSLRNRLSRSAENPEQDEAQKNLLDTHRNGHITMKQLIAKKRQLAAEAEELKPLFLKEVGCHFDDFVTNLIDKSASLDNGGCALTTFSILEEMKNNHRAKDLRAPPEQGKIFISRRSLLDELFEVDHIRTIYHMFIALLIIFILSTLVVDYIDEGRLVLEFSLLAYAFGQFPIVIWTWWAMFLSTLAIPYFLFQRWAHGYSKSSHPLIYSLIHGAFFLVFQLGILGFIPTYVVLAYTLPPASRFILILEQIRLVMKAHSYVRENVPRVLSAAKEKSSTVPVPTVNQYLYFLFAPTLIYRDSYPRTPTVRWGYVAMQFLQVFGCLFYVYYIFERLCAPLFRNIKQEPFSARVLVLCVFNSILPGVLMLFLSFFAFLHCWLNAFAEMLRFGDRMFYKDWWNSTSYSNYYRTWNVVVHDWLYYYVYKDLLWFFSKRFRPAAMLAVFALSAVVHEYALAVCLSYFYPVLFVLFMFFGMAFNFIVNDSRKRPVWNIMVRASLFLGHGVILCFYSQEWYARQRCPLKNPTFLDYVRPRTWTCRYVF
Assay: In vitro inhibitory activity against acyl coenzyme A:cholesterol acyltransferase 1 in microsomes of rat liver

| SMILES | IC50 [µM] |
| --- | --- |
| CCCCCCCCCCC(C)OS(=O)(=O)NC(=O)Nc1c(C(C)C)cccc1C(C)C (configuration not stated) | 16 |
| Cc1cc(C(C)(C)C)c(OC(=O)NS(=O)(=O)N(CCCN(C)C)CCCN(C)C)c(C(C)(C)C)c1 | 164 |
